The text below walks through data of PubChem BioAssay AID588627 (Johns Hopkins Ion Channel Center, 2011).

The chains behind the UniProt entries cited, without tags or fusion partners.
UniProt Q96LB2, whole entry: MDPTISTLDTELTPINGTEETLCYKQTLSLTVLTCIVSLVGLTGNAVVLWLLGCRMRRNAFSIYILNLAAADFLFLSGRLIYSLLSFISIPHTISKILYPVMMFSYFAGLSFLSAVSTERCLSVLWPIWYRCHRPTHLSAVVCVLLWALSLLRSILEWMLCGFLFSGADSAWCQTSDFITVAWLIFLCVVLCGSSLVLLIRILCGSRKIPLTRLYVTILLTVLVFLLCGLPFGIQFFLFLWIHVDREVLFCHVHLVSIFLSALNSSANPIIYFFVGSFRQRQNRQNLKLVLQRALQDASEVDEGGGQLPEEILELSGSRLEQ

This is a selection; strong and weak results do not stand in their true shares. Some structures show a salt or complex split into parts, the way the source records it. Activity calls are given as the source filed them.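 Rule for the calls: active = calcium response B-score plate-corrected fluorescence ratio at least 3 library SD, with starting fluorescence B-score inside 5 SD; inactive = the rest.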

The target in the assay is Mas-related G-protein coupled receptor member X1 (Homo sapiens) (UniProt Q96LB2). The assay is described as follows: agonists of human MrgX1 receptor, primary screen, HEK293 cells, Fluo-4 calcium flux (AID 588627). The following applies: Fluo-4 calcium fluorescence, agonist mode, at 10 µM. In short, it runs like this: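 Material: MrgX1-expressing HEK293 cells; input: 15,000 cells per well; doses: test compound given as first of three sequential additions; schedule: overnight plating before 1 h dye loading; technique: Fluo-4 NW calcium-flux fluorescence, kinetic read; evaluation: baseline-normalised fluorescence change ratio, B-scored; control set: plate-wise positive and negative controls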
Background: Calcium assays in cells follow changes in intracellular calcium, usually with a dye or a luminescent sensor.
In the case of `NC(=O)c1cc([N+](=O)[O-])cc([N+](=O)[O-])c1N`, the result was inactive.

For `Cc1ccc(N/C(=N/P(=O)(N2CCOCC2)N2CCOCC2)N2CCOCC2)cc1`, the outcome was inactive.

As to `COc1ccccc1OP(C)(=O)Nc1ccc(Br)cc1` (configuration not stated), the result was inactive.

`CN(C(=O)Cc1ccc(Cl)c(Cl)c1)[C@H]1CCCC[C@H]1N1CCCC1`: the result was inactive.

For the compound `Cc1ccc(OP(=O)(Nc2nccs2)Oc2ccc(C)cc2)cc1`, the result was inactive.

`COc1ccc(OP(C)(=O)Nc2ccccn2)cc1` (configuration not stated): the outcome was inactive.

Regarding `COc1ccccc1OP(=O)(Nc1ccc(C)cn1)Oc1ccccc1OC`, the outcome was inactive.

Regarding `Clc1ccc(Cl)c(NC2=NCC(CBr)S2)c1` (configuration not stated), the result was inactive.

As for `CN(C)CCOC(=O)C(O)(c1ccccc1)C1CCCC1` (configuration not stated), the outcome was inactive.

For the compound `CN1CCCC(OC(=O)C(c2ccccc2)c2ccccc2)C1` (configuration not stated), the outcome was inactive.

`CC(C)CC(=O)NC(Sc1ccc(Cl)cc1)C(Cl)(Cl)Cl` (configuration not stated): the outcome was inactive.

As for `O=[N+]([O-])c1cc([N+](=O)[O-])c(Nc2ccccn2)c([N+](=O)[O-])c1`, the outcome was inactive.

`Cc1c(NP(C)(=O)Oc2ccc(C(C)C)cc2)c(=O)n(-c2ccccc2)n1C` (configuration not stated): the result was inactive.

Regarding `Nc1cc(N)c2nonc2c1[N+](=O)[O-]`, the result was inactive.

For the compound `O=C(NC(Sc1ccncn1)C(Cl)(Cl)Cl)c1ccccc1` (configuration not stated), the outcome was inactive.

Regarding `Oc1ccccc1CNc1ccccn1`, the outcome was inactive.

`COc1ccccc1OP(C)(=O)Nc1ccc(C)cc1C` (configuration not stated): the result was inactive.

With `CP(=O)(Nc1ccccn1)Oc1ccccc1` (configuration not stated), the outcome was inactive.

With `CCc1ccc(OP(C)(=O)O)cc1`, the outcome was inactive.

`O=C(O)c1ccccc1[As](=O)(O)O`: the outcome was inactive.

Regarding `CC(=O)Nc1ccc([As](=O)(O)O)cc1`, the result was inactive.

Regarding `Cc1cc(C)cc(OP(C)(=O)Nc2cccc(C(F)(F)F)c2)c1` (configuration not stated), the outcome was inactive.

`O=P(Nc1nc2ccc(Cl)cc2s1)(c1ccccc1)c1ccccc1`: the outcome was inactive.

With `Cc1ccc(NP(=O)(Oc2ccccc2F)Oc2ccccc2F)nc1`, the outcome was inactive.

For the compound `CN(C(=O)Cc1ccc(Cl)c(Cl)c1)[C@H]1CCCC[C@@H]1N1CCCC1`, the result was inactive.

As for `COc1ccccc1OP(C)(=O)Nc1ccc(C)c(C)c1` (configuration not stated), the outcome was inactive.

Consider `CCOP(=O)(Nc1ccccc1)OCC`, for which the result was inactive.

Turning to `Cc1cc(SC(NC(=O)c2ccc(F)cc2)C(Cl)(Cl)Cl)ncn1` (configuration not stated), the outcome was inactive.

For `COc1ccc(OP(C)(=O)Nc2ccccc2Br)cc1` (configuration not stated), the result was inactive.

Consider `Cc1nc2ccc3ccccc3c2o1.O=[N+]([O-])c1cc([N+](=O)[O-])c(O)c([N+](=O)[O-])c1`, for which the result was inactive.

As for `O=[N+]([O-])c1cc([N+](=O)[O-])c(CCN2CCOCC2)c([N+](=O)[O-])c1`, the outcome was inactive.

`CCN(N=Nc1nonc1N)c1nonc1N`: the result was inactive.

As to `CP(=O)(OCCOc1ccccc1)OCCOc1ccccc1`, the outcome was inactive.

Consider `CP(=O)(Nc1ccc(Cl)cc1Cl)Oc1ccccc1` (configuration not stated), for which the outcome was inactive.

Take `Nc1cccc2ccc([As](=O)(O)O)cc12`: the outcome was inactive.

For the compound `Nc1ccc2c(ccc3cccnc32)n1.O=[N+]([O-])c1cc([N+](=O)[O-])c(O)c([N+](=O)[O-])c1`, the outcome was inactive.

For the compound `O=C(Nc1cc([As](=O)(O)O)ccc1O)c1ccccc1`, the result was inactive.

In the case of `CCOC(=O)c1ccc(NP(C)(=O)Oc2ccc(Cl)cc2)cc1` (configuration not stated), the outcome was inactive.

Take `CP(=O)(OC12CC3CC(CC(C3)C1)C2)OC12CC3CC(CC(C3)C1)C2`: the outcome was inactive.

For the compound `CC(C)(C)C(=O)NC(Sc1ccncn1)C(Cl)(Cl)Cl` (configuration not stated), the result was inactive.

Turning to `O=[N+]([O-])c1ncn(CCn2ncnc2[N+](=O)[O-])n1`, the outcome was inactive.

In the case of `O=[N+]([O-])c1cccc(NC2=NCC(CBr)S2)c1` (configuration not stated), the result was inactive.

As to `O=C(O)CNc1ccc([As](=O)(O)O)cc1`, the result was inactive.

`COc1ccc(C2=NCC(CBr)S2)cc1` (configuration not stated): the outcome was inactive.

For `COc1ccc(OP(C)(=O)Nc2ccc(Br)cc2)cc1` (configuration not stated), the result was inactive.

Regarding `CCN(CC)CC(O)COC(=O)C(O)(c1ccccc1)C1CCCCC1` (configuration not stated), the result was inactive.

For `O=C(OCCCN1CCCC1)C(O)(c1ccccc1)C1CCCCC1` (configuration not stated), the outcome was inactive.

`COc1ccccc1OP(C)(=O)Nc1c(C)n(C)n(-c2ccccc2)c1=O` (configuration not stated): the outcome was inactive.

In the case of `O=[N+]([O-])c1cccc2n[nH]nc12`, the result was inactive.

For `CC(=O)N1C2C3N(C(C)=O)C1C1N(C(C)=O)C(C(N1C(C)=O)N3C(C)=O)N2C(C)=O`, the result was inactive.

In the case of `CCc1nc2c(n1)c1c(non1O)c1c2no[n+]1[O-]`, the result was inactive.

With `O=[N+]([O-])c1cc([N+](=O)[O-])c(CCNc2ccccc2)c([N+](=O)[O-])c1`, the result was inactive.

With `CCc1ccc(OP(C)(=O)Nc2cccnc2)cc1` (configuration not stated), the outcome was inactive.

With `Cc1ccc(NP(=O)(Oc2ccccc2)Oc2ccccc2)nc1`, the result was inactive.

For `CP(=O)(Oc1ccccc1)N1CCOC1=O` (configuration not stated), the outcome was inactive.

Consider `C[N+]1=C2C=CC=CC=C2SC12C([N+](=O)[O-])=CC([N+](=O)[O-])=C[C-]2[N+](=O)[O-]` (configuration not stated), for which the result was inactive.

Take `CC(C)(C)c1ccc(OP(C)(=O)O)cc1`: the result was inactive.

With `Nc1ccc([As](=O)(O)c2ccc(N)cc2)cc1`, the outcome was inactive.

Regarding `COc1ccccc1OP(C)(=O)Nc1ccccc1Br` (configuration not stated), the outcome was inactive.

Regarding `CP(=O)(Nc1ccc(Cl)cc1)Oc1ccc(F)cc1` (configuration not stated), the result was inactive.

Consider `CCN(/C(=N/P(=O)(N1CCOCC1)N1CCOCC1)N1CCOCC1)c1ccc(OC)cc1`, for which the outcome was inactive.

On to `CN(C)C(=O)OCCc1n(C)cc[n+]1C`, for which the outcome was inactive.

Regarding `CN(C)C(=O)c1c([N+](=O)[O-])cc([N+](=O)[O-])cc1[N+](=O)[O-]`, the outcome was inactive.

On to `CC(C)=N/N=C(\N)N[N+](=O)[O-]`, for which the result was inactive.

`CC1CCN(C(=O)Oc2c(Cl)cc(Cl)c3cccnc23)CC1`: the outcome was inactive.

For `CP(=O)(Nc1ccc(SC(F)(F)F)cc1)Oc1ccc(F)cc1` (configuration not stated), the result was inactive.

Regarding `CC(C)C(=O)NC(Sc1ccccc1)C(Cl)(Cl)Cl` (configuration not stated), the outcome was inactive.

As to `O=P(Nc1nccs1)(c1ccccc1)c1ccccc1`, the outcome was inactive.

Consider `CCOP(C)(=S)SCC(=O)NC(C)(CC)C(=O)O` (configuration not stated), for which the result was inactive.

Regarding `c1nnnn1CCn1cnnn1`, the result was inactive.

Turning to `CP(=O)(Nc1ccc2c(c1)OCCO2)Oc1ccccc1` (configuration not stated), the result was inactive.

For `Cc1ccccc1NP(C)(=O)Nc1ccccc1C`, the outcome was inactive.

For `COc1ccc(OP(C)(=O)Nc2cccc(Br)c2)cc1` (configuration not stated), the outcome was inactive.

With `O=P(Nc1ccccn1)(c1ccc(Br)cc1)c1ccc(Br)cc1`, the outcome was inactive.

Take `C[C@H]1OP(=O)(Oc2ccccc2)[C@H](O)[C@H](O)[C@H]1N=[N+]=[N-]` (some centres not stated): the result was inactive.

Turning to `CN(C)CCOC(=O)C(O)(c1ccccc1)C1CCCCC1` (configuration not stated), the outcome was inactive.

Turning to `O=P(Nc1nc2ccccc2s1)(c1ccccc1)c1ccccc1`, the outcome was inactive.

Take `COc1ccc(NP(C)(=O)Oc2ccccc2OC)cc1` (configuration not stated): the outcome was inactive.

As to `O=[N+]([O-])c1ccc(O)c(/C=N/Nc2ccc([N+](=O)[O-])cc2[N+](=O)[O-])c1`, the outcome was inactive.

With `O=[N+]([O-])c1ccc(OP2(=O)COCCO2)cc1` (configuration not stated), the outcome was inactive.

Consider `CC(=O)NC(SC(=S)N(C)C)C(Cl)(Cl)Cl` (configuration not stated), for which the result was inactive.

As to `O=[N+]([O-])c1ncn(CCn2cnc([N+](=O)[O-])n2)n1`, the result was inactive.

`O=[N+]([O-])c1cc([N+](=O)[O-])c(NCC2CCS(=O)(=O)C2)c([N+](=O)[O-])c1` (configuration not stated): the result was inactive.

With `O=[As](O)(c1ccccc1)c1ccc(O)cc1`, the outcome was inactive.

With `Nc1ccc([As](=O)(O)c2ccc([N+](=O)[O-])cc2)cc1`, the result was inactive.

Regarding `C(Cc1nn[nH]n1)Cc1nn[nH]n1`, the result was inactive.

`O=C(OC1CN2CCC1CC2)c1cccc(Cl)c1` (configuration not stated): the result was inactive.

On to `CCNC(=S)/N=C(\N)N[N+](=O)[O-]`, for which the result was inactive.

Regarding `O=C(NC1CCS(=O)(=O)C1)NP(=S)(Oc1ccccc1)Oc1ccccc1` (configuration not stated), the result was inactive.

Take `Cc1ccc(NP(=O)(Oc2cccc(C)c2)Oc2cccc(C)c2)nc1`: the outcome was inactive.

In the case of `CCOC(=O)NC(Sc1ccccc1)C(Cl)(Cl)Cl` (configuration not stated), the outcome was inactive.

As to `c1ccc(-c2nn[nH]n2)c(-c2nn[nH]n2)c1`, the outcome was inactive.

Regarding `CCOC(=O)c1ccc(NP(C)(=O)Oc2ccc(F)cc2)cc1` (configuration not stated), the outcome was inactive.

For the compound `COc1ccc(OP(C)(=O)Nc2ccc(SC(F)(F)F)cc2)cc1` (configuration not stated), the outcome was inactive.

In the case of `CC(=O)NC(SC(=S)N(CC(C)C)CC(C)C)C(Cl)(Cl)Cl` (configuration not stated), the result was inactive.

For `Cc1ccc(OP(=O)(Nc2ccccn2)Oc2ccc(C)cc2)cc1`, the result was inactive.

Turning to `COC(=O)c1cc2c(s1)N=C(c1ccccc1)N(C)P2(=O)N1CCOCC1` (configuration not stated), the result was inactive.

For the compound `CCN(CC)CCCOC(=O)C(O)(c1ccccc1)C1CCCCC1` (configuration not stated), the result was inactive.

Turning to `CCC(=O)N1C2C3N(C(=O)CC)C1C1N(C(=O)CC)C(C(N1C(=O)CC)N3C(=O)CC)N2C(=O)CC`, the outcome was inactive.

On to `O=C(OC1CN2CCC1CC2)c1ccccc1` (configuration not stated), for which the outcome was inactive.

For the compound `CP(=O)(Nc1ccccc1)Oc1ccc(F)cc1` (configuration not stated), the outcome was inactive.

On to `CN(C)C(=O)Oc1noc2ccccc12`, for which the result was inactive.

In the case of `O=[N+]([O-])c1cc([N+](=O)[O-])c(OC2CCCCC2O)c([N+](=O)[O-])c1` (configuration not stated), the result was inactive.

Turning to `CCCCCOc1ccc(NP(C)(=O)Oc2ccc(Cl)cc2Cl)cc1` (configuration not stated), the result was inactive.

`Cc1ccccc1OP(=O)(Nc1ccccn1)Oc1ccccc1C`: the outcome was inactive.

On to `CCOc1ccc(C2=NCC(CBr)S2)cc1` (configuration not stated), for which the result was inactive.

For the compound `O=P1(Nc2nc3ccc(Cl)cc3s2)COc2ccccc2O1` (configuration not stated), the result was inactive.

Turning to `CP(=O)(Nc1ccccc1F)Oc1ccccc1` (configuration not stated), the result was inactive.

Take `CC(C)c1ccc(OP(C)(=O)Nc2ccc(SC(F)(F)F)cc2)cc1` (configuration not stated): the outcome was inactive.

For the compound `CC(C)(C)C(=O)NC(Sc1ccccc1)C(Cl)(Cl)Cl` (configuration not stated), the result was inactive.

As for `O=C(OC1CN2CCC1CC2)c1ccc([N+](=O)[O-])cc1` (configuration not stated), the result was inactive.

For the compound `CC(=O)c1ccc(N2CC2c2ccncc2)cc1` (configuration not stated), the result was inactive.

Consider `C[C@@H]1C=CCP(=O)(Oc2ccccc2)O1` (some centres not stated), for which the outcome was inactive.

Take `C[C@H]1OP(=O)(Oc2ccccc2)C[C@@H]2O[C@@H]21` (some centres not stated): the result was inactive.

For `O=C(OCCN1CCN(CCOCc2ccccc2)CC1)C(O)(c1ccccc1)c1ccccc1`, the outcome was inactive.

With `CC(=O)Nc1ccc(Oc2c([N+](=O)[O-])cc([N+](=O)[O-])cc2[N+](=O)[O-])cc1`, the result was inactive.

In the case of `COc1ccc2c(c1O)-c1c(O)c(OC)cc3c1[C@H](C2)[N+](C)(C)CC3.O=[N+]([O-])c1cc([N+](=O)[O-])c([O-])c([N+](=O)[O-])c1[O-]`, the outcome was inactive.
